The record followed here is patent US20180313827A1.

Amino acid sequences for entries named in this document (tags omitted). Chains listed by the source or under a name are the forms on record and can include a tag or linker.
UniProt Q9NQI0, other isoform, or with tags, fused parts or gaps limits assumed: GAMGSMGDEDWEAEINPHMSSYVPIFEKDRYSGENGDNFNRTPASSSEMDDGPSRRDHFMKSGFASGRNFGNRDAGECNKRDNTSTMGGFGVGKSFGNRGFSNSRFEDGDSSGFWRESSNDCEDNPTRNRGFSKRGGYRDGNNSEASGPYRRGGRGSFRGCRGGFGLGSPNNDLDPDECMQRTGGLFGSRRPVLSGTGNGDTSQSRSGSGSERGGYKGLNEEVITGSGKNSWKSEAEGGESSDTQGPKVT

This experiment deals with Ddx4_N1_1 (disordered N-terminus of Ddx4 protein, forming Ddx4N1 membraneless organelles / proteinaceous phase) (Homo sapiens (Human)) (UniProt Q9NQI0). The experiment is described as follows: confocal fluorescence microscopy, partitioning inside vs outside Ddx4N1 organelles in vitro; 17.3 µM, 175 mM NaCl.

On to “sHSP16.5_GFP (small heat shock protein Hsp16.5 fused to GFP, oligomer)”, for which the ΔGpart (partition free energy into Ddx4N1 organelles) is -3.4 kJmol^-1.
